Test results from patent US20180185510A1, “ANTIBODY DRUG CONJUGATES OF KINESIN SPINDEL PROTEIN (KSP) INHIBITORS WITH ANTI-B7H3-ANTIBODIES” (BAYER PHARMA AKTIENGESELLSCHAFT, priority 2015, published 2018).

System: Caco-2 cells
Experiment: Flux assay for cell permeability using Caco-2 cells
Conditions: for Papp (B-A): Caco-2, basal to apical, 2 hours

| Structure (SMILES) | Papp (B-A) | Efflux ratio (Caco-2, ratio of Papp (B-A) to Papp (A-B)) |
| --- | --- | --- |
| CC(C)(C)[C@H](c1cc(-c2cc(F)ccc2F)cn1Cc1ccccc1)N(CCCN)C(=O)CO [Example M9, N-(3-Aminopropyl)-N-{(1R)-1-[1-benzyl-4-(2,5-difluorophenyl)-1H-pyrrol-2-yl]-2,2-dimethylpropyl}-2-hydroxyacetamide] | 21.3 ×10⁻⁶ cm/s |  |
| CC(C)(C)[C@H](c1cc(-c2cc(F)ccc2F)cn1Cc1ccccc1)N(CCCN)C(=O)CSC[C@H](N)C(=O)O.O=C(O)C(F)(F)F.O=C(O)C(F)(F)F [Example M11, S-{2-[(3-Aminopropyl) {(1R)-1-[1-benzyl-4-(2,5-difluorophenyl)-1H-pyrrol-2-yl]-2,2-dimethylpropyl}amino]-2-oxoethyl}-L-cysteine/trifluoroacetic acid (1:2)] | 2.43 ×10⁻⁶ cm/s | 27.7 |
| CC(C)(C)[C@H](c1cc(-c2cc(F)ccc2F)cn1Cc1ccccc1)N(CC[C@H](N)C(=O)NCCNC(=O)CNC(=O)C(CC(=O)O)SC[C@H](N)C(=O)O)C(=O)CO (stereo partly drawn) [Example M27, 4-[(2-{[2-({(2S)-2-Amino-4-[{(1R)-1-[1-benzyl-4-(2,5-difluorophenyl)-1H-pyrrol-2-yl]-2,2-dimethylpropyl}(glycoloyl)amino]butanoyl}amino)ethyl]amino}-2-oxoethyl)amino]-3-{[(2R)-2-amino-2-carboxyethyl]sulphanyl}-4-oxobutanoic acid-trifluoroacetic acid (1:1)] | 1.32 ×10⁻⁶ cm/s |  |
